## Binding of CDR-mutated scFvs to a peptide of the spike HR2 region

From the AlphaSeq antibody data of Li et al. 2023 (doi:10.1038/s41467-023-39022-2), copy in the FLAb collection.

Target: peptide PDVDLGDISGINAS, taken from heptad repeat 2 (HR2) of SARS-CoV-2 spike.

Each scFv is VH, three GGGGS repeats, VL, as in the parent Ab-14, and differs from it in the CDRs of the light chain only.
VH: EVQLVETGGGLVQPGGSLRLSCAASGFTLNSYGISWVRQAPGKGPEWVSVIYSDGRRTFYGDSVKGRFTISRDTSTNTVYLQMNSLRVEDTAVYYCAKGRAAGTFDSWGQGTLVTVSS
VL: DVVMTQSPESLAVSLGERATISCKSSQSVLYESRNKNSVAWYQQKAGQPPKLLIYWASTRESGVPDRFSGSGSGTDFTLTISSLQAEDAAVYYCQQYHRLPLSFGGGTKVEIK

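Phage display of a naive human antibody library on the peptide gave the parent. These sequences belong to a second round, designed from the earlier measurements on random variants of the parent. Group labels follow the data file (Ctrl: baseline library sampled from a position-specific scoring matrix, with some repeated check sequences; GP: Gaussian process model; HC: hill climbing; Gen: genetic algorithm; Gibbs: Gibbs sampling; a sequence that several methods proposed may carry one label only). AlphaSeq pools MATa yeast showing the antibodies with MATalpha yeast showing the peptide. After mating in shaken culture at 30 °C for 16 h, diploids were selected and their barcode pairs sequenced. Scores were corrected for input abundance and mapped to Kd with protein pairs of known affinity run in the same pool. Each pool was mated in six replicate cultures.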

Each variant's VL is given in full. Variants here have at most six changes. Scale: log10 of Kd in nM, estimated from mating counts; low values are strong binders. A mean of the replicates is given; it leaves out those without a signal. An entry "nd" has no value in the source: the pair was not observed among the diploids in that replicate. This suggests poor binding but is not conclusive. Of ten entries with the parent sequence, four were seen in most replicates (averages 0.34 to 2.37), three in one and three in none, so single entries are noisy. The authors averaged sequences with at least three values out of six and counted those with two or fewer as poor binders. Nonspecific signal, from three strains lacking the peptide, appeared in 4% of pairings of all light chain designs, centred on 2.64 (5% of these signals below 1.59); values are not corrected for it. Also given: how often the same scFv was detected with the empty control strains. The range of this assay differs from that of the first round, and the authors advise against merging the two.

The variant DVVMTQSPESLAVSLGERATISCKSSGSFLYESRNKNSVAWYQQKAGQPPKLLIYGASTRESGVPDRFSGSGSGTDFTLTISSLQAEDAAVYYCQQYHRLPLSFGGGTKVEIK [GP_HC] showed 0.03, 0.33, 0.80, 0.30, 0.17, 0.27 (mean 0.32; controls 0 of 18). The variant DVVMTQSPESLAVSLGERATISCKSSQSVLYFDNNKNSVAWYQQKAGQPPKLLIYGASTREAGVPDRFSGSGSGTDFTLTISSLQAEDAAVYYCQQYHRLPLSFGGGTKVEIK [Ctrl] showed 0.20, -0.16, 0.05, 0.16, 0.43, 0.73 (mean 0.23; controls 0 of 18). With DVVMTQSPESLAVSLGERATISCKLSQSWLYESRNWNSVAWYQQKAGQPPKLLIYNASQRESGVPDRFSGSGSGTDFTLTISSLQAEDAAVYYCQQYHRLPLSFGGGTKVEIK [GP_Gen] the result was 0.09, 0.12, -0.08, -0.11, -0.07, 0.06 (mean 0.00; controls 0 of 18). With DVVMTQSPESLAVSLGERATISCKFSQLYLYESRNKNSVAWYQQKAGQPPKLLIYNASCRESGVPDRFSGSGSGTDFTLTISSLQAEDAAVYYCQQYWRLPLSFGGGTKVEIK [GP_Gibbs] the result was 0.72, 1.37, 0.67, 0.52, 1.39, 1.02 (mean 0.95; controls 1 of 18). The variant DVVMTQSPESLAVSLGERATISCKSSISVPYESMNKNSVAWYQQKAGQPPKLLIYEASTRESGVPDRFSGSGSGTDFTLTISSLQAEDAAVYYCQQYHRLPLSFGGGTKVEIK [GP_HC] gave 0.54, 0.55, 0.28, 0.32, 0.18, 0.57 (mean 0.41; controls 4 of 18). The variant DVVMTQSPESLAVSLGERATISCKLSQSMLYESRNFNSVAWYQQKAGQPPKLLIYNASQRESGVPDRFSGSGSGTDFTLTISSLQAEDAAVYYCQQYHRLPLSFGGGTKVEIK [GP_Gen] showed -0.01, -0.03, 0.10, 0.35, 0.38, 0.39 (mean 0.20; controls 0 of 18). The variant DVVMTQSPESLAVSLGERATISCKVSQSVPYEERNKNSVAWYQQKAGQPPKLLIYEASTRESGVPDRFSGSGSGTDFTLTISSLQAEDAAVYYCQQYHRLPLSFGGGTKVEIK [GP_Gen] showed 0.47, 0.12, 0.85, 0.22, 0.96, 0.80 (mean 0.57; controls 0 of 18).

With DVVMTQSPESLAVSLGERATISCKLSQSWEYESRNKNSVAWYQQKAGQPPKLLIYNASQRLSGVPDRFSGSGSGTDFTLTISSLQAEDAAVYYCQQYHRLPLSFGGGTKVEIK [GP_Gen] the result was 0.38, 0.49, 0.29, 0.29, 0.33, 0.56 (mean 0.39; controls 2 of 18). The variant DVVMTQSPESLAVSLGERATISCKLQQSELYESRNKNSVAWYQQKAGQPPKLLIYNASQRLSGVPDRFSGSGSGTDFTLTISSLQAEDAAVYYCQQYHRLPLSFGGGTKVEIK [GP_Gen] showed -0.03, -0.41, -0.22, -0.17, -0.49, -0.08 (mean -0.23; controls 0 of 18). The variant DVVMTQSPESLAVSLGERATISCKSSQGVLLESRNKNSVRWYQQKAGQPPKLLIYDASTRESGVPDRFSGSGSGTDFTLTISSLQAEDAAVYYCQQYHRLPLSFGGGTKVEIK [Ctrl] showed nd, nd, nd, nd, nd, nd (controls 0 of 18). With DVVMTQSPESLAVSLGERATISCKLEQSVLYESRNKNSVAWYQQKAGQPPKLLIYNASTRESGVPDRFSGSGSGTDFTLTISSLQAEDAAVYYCQQYHRLPLMFGGGTKVEIK [GP_Gen] the result was 0.08, -0.08, -0.22, -0.21, -0.26, -0.03 (mean -0.12; controls 4 of 18). The variant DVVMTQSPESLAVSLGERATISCKSLQSQLYESRNKNSVAWYQQKAGQPPKLLIYHASTREDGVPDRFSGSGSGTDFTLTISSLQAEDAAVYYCQLYHRLPLIFGGGTKVEIK [GP_HC] showed 0.94, 1.25, 0.88, 0.35, 0.95, 1.16 (mean 0.92; controls 0 of 18). With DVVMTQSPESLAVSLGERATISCKSSQSVLYEARNKNSVAWYQQKAGQPPKLLIYKASTRESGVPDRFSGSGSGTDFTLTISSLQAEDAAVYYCQQYHRLPLSFGGGTKVEIK [Ctrl] the result was 2.16, 3.30, 1.56, 2.21, 2.35, 1.71 (mean 2.21; controls 4 of 18). With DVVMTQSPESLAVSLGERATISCKSQQSWLYESRNKNSVAWYQQKAGQPPKLLIYHASTREQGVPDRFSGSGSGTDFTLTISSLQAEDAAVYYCQQYHRLPLSFGGGTKVEIK [GP_HC] the result was 0.14, -0.03, -0.52, -0.40, -0.11, -0.18 (mean -0.18; controls 0 of 18).

The variant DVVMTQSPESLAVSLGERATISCKSSQSPLHDSRNKNSVAWYQQKAGQPPKLLIYWASTRESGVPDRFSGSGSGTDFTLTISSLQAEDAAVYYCQQYHRLPLSFGGGTKVEIK [Ctrl] gave nd, 2.09, nd, 1.29, nd, nd (mean 1.69; controls 0 of 18). For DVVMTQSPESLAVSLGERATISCKSSQSVLYESRNKNSVAWYQQKAGQPPKLLIYTASTRESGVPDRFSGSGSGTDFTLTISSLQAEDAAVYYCQQYHRLPLSFGGGTKVEIK [Ctrl], the assay gave 2.18, 1.65, 1.29, 2.02, 2.01, 3.15 (mean 2.05; controls 1 of 18). The variant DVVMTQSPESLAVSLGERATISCKQSQSVLGEWRNKNSVAWYQQKAGQPPKLLIYDASTRESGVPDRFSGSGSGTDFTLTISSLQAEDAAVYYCQQYHRLPLSFGGGTKVEIK [GP_HC] showed 0.25, 0.32, 0.36, 0.31, 0.06, 0.27 (mean 0.26; controls 0 of 18). With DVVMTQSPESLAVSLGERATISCKSSQSVLGESRNKNSVAWYQQKAGQPPKLLIYDASDRESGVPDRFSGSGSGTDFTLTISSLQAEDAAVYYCQQYHRLPLSFGGGTKVEIK [GP_HC] the result was 0.35, 0.46, 0.48, 0.89, 0.65, 0.46 (mean 0.55; controls 0 of 18). With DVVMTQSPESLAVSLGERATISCKSSISHLYESRNENSVAWYQQKAGQPPKLLIYEASTREQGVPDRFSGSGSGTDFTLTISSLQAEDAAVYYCQQYHRLPLSFGGGTKVEIK [GP_HC] the result was -0.20, -0.35, -0.33, -0.48, -0.40, -0.17 (mean -0.32; controls 0 of 18). The variant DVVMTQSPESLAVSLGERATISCKSSTSGLYESDNKNSVAWYQQKAGQPPKLLIYDASTRESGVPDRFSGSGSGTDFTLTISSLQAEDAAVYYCQQYHRLPLSFGGGTKVEIK [Ctrl] gave -0.32, -0.21, -0.40, -0.48, -0.43, 0.07 (mean -0.30; controls 0 of 18).

A selection of 3 entries from above:

VL,group,"replicates, log10 nM","mean, log10 nM",empty controls
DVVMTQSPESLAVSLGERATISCKSSTSGLYESDNKNSVAWYQQKAGQPPKLLIYDASTRESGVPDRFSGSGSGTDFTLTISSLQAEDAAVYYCQQYHRLPLSFGGGTKVEIK,Ctrl,"-0.32, -0.21, -0.40, -0.48, -0.43, 0.07",-0.30,0/18
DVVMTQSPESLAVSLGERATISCKLEQSVLYESRNKNSVAWYQQKAGQPPKLLIYNASTRESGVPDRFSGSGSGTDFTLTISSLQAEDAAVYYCQQYHRLPLMFGGGTKVEIK,GP_Gen,"0.08, -0.08, -0.22, -0.21, -0.26, -0.03",-0.12,4/18
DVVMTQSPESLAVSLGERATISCKLSQSWEYESRNKNSVAWYQQKAGQPPKLLIYNASQRLSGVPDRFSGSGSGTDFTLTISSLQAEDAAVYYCQQYHRLPLSFGGGTKVEIK,GP_Gen,"0.38, 0.49, 0.29, 0.29, 0.33, 0.56",0.39,2/18